{"sequences": {"note": "Sequences of proteins named here, by UniProt entry; tags and fusion partners are left off. A change or cut given only in a name is not applied to a line headed by its entry.", "UniProt Q9HCR9": "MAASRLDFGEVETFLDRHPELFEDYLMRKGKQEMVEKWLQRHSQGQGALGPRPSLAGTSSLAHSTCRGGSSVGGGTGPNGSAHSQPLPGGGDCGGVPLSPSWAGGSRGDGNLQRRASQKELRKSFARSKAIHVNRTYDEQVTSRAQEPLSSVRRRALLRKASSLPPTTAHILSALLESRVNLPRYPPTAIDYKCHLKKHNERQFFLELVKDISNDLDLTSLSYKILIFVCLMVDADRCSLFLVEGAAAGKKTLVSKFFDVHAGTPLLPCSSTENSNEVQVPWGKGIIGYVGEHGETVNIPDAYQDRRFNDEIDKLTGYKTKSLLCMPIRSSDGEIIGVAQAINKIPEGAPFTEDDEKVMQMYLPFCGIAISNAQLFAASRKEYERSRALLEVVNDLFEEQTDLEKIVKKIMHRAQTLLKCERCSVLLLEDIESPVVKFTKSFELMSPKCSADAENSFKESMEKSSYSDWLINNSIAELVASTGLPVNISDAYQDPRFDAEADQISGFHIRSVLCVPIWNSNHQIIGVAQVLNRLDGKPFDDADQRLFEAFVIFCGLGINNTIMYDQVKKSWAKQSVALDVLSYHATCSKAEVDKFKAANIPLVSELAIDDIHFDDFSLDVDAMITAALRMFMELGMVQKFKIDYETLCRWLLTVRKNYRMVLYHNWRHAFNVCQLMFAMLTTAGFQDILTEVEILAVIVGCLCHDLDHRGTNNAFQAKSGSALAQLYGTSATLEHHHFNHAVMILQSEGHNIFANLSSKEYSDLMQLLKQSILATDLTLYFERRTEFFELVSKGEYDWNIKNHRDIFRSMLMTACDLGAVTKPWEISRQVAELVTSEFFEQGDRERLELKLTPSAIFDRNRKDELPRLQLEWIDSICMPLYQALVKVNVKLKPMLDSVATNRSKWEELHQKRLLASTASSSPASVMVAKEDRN"}, "source": "patent US11185540B2", "about": "“Extended release compositions of opioid antagonists and phosphodiesterase 5 inhibitors” (Pardon My Scotch, LLC, priority 2017, dated 2021)", "origin": "cited, not measured here", "biological_target": "PDE11 (Homo sapiens, UniProt Q9HCR9)", "data": [{"smiles": "CN1CC(=O)N2[C@H](c3ccc4c(c3)OCO4)c3[nH]c4ccccc4c3C[C@@H]2C1=O", "note": "[tadalafil, pyrazino[1′,2′:1,6]pyrido[3,4-b]indole-1,4-dione, 6-(1,3-benzodioxol-5-yl)-2,3,6,7,12,12a-hexahydro-2-methyl-, (6R,12aR)-]", "values": [{"measurement": "Inhibition of PDE11", "value": "inhibit"}]}]}
